biological target: T1, OX2 (Homo sapiens, UniProt O43614); experiment: Orexin receptor cell-based functional assay, [Ca2+]i by FLIPR, CHO-OX2 cells; conditions: CHO-OX2 cells, [Ca2+]i by FLIPR, antagonist dose-range 0.1 nM-10 μM, EC90 of OXA; read-out: OX2
T1 construct: expressed in transfected cells; host or cells: CHO (CHO-OX2, kept under selection antibiotic)

By UniProt entry, the sequences of proteins in these tests, tags left out.
UniProt O43614, whole entry: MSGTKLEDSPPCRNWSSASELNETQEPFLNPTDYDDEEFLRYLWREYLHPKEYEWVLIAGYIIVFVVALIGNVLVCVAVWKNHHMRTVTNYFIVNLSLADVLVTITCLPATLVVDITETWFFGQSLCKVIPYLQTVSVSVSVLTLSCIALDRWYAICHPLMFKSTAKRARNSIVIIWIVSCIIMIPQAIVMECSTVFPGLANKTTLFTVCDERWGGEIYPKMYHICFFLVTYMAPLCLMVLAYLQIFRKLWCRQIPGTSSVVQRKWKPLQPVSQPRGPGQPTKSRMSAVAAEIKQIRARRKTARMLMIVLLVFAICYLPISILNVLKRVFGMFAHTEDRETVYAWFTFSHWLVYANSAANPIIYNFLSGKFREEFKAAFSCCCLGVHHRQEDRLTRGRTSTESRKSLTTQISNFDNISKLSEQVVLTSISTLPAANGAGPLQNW

IC50 | SMILES
> 5 µM | Cc1ccc(-n2nccn2)c(C(=O)N2CCC[C@@H](C)[C@H]2CNc2ncc(C#N)cc2F)c1 [Example A148, 5-Fluoro-6-((((2S,3R)-3-methyl-1-(5-methyl-2-(2H-1,2,3-triazol-2-yl)benzoyl)piperidin-2-yl)methyl)amino)nicotinonitrile]
0.8 µM | Cc1ccc(-c2cnn(C)c2)c(C(=O)N2CCC[C@@H](C)[C@H]2CNc2nc3cc(Cl)ccc3o2)c1 [Example A12, ((2S,3R)-2-(((5-chlorobenzo[d]oxazol-2-yl)amino)methyl)-3-methylpiperidin-1-yl)(5-methyl-2-(1-methyl-1H-pyrazol-4-yl)phenyl)methanone]
> 4 µM | Cc1ccc(-c2cnn(C)c2)c(C(=O)N2CCC[C@@H](C)[C@H]2CNc2cccc(C)n2)c1 [Example A87, ((2S,3R)-3-Methyl-2-(((6-methylpyridin-2-yl)amino)methyl)piperidin-1-yl)(5-methyl-2-(1-methyl-1H-pyrazol-4-yl)phenyl)methanone]
> 5 µM | Cc1ccc(-c2ccccn2)c(C(=O)N2CCC[C@@H](C)[C@H]2CNc2ncc(C#N)cn2)c1 [Example A153, 2-((((2S,3R)-3-Methyl-1-(5-methyl-2-(pyridin-2-yl)benzoyl)piperidin-2-yl)methyl)amino)pyrimidine-5-carbonitrile]
> 5 µM | C[C@@H]1CCCN(C(=O)c2cc(F)ccc2-c2ncccn2)[C@@H]1CNc1ncc(C(F)(F)F)cn1 [Example A227, (5-Fluoro-2-(pyrimidin-2-yl)phenyl)((2S,3R)-3-methyl-2-(((5-(trifluoromethyl)pyrimidin-2-yl)amino)methyl)piperidin-1-yl)methanone]
> 5 µM | Cc1ccc(-c2cccnc2)c(C(=O)N2CCC[C@@H](C)[C@H]2CNc2ncc(C(F)(F)F)cn2)n1 [Example A223, ((2S,3R)-3-Methyl-2-(((5-(trifluoromethyl)pyrimidin-2-yl)amino)methyl)piperidin-1-yl)(6-methyl-[3,3′-bipyridin]-2-yl)methanone]
> 5 µM | Cc1ccc(-n2nccn2)c(C(=O)N2CCC[C@@H](C)[C@H]2CNc2ncc(Cl)cn2)c1 [Example A147, ((2S,3R)-2-(((5-Chloropyrimidin-2-yl)amino)methyl)-3-methylpiperidin-1-yl)(5-methyl-2-(2H-1,2,3-triazol-2-yl)phenyl)methanone]
> 5 µM | C[C@@H]1CCCN(C(=O)c2cc(F)ccc2-c2ncccn2)[C@@H]1CNc1ccc(Cl)cn1 [Example A229, ((2S,3R)-2-(((5-Chloropyridin-2-yl)amino)methyl)-3-methylpiperidin-1-yl)(5-fluoro-2-(pyrimidin-2-yl)phenyl)methanone]
> 5 µM | Cc1ccc(NC[C@@H]2[C@H](C)CCCN2C(=O)c2cc(C)ccc2-c2cnn(C)c2)nc1 [Example A49, ((2S,3R)-3-Methyl-2-(((5-methylpyridin-2-yl)amino)methyl)piperidin-1-yl)(5-methyl-2-(1-methyl-1H-pyrazol-4-yl)phenyl)methanone]
2.9 µM | Cc1ccc(-n2nccn2)c(C(=O)N2CCC[C@@H](C)[C@H]2CNc2ccc(Cl)cn2)c1 [Example A78, ((2S,3R)-2-(((5-Chloropyridin-2-yl)amino)methyl)-3-methylpiperidin-1-yl)(5-methyl-2-(2H-1,2,3-triazol-2-yl)phenyl)methanone]
> 5 µM | Cc1ccc(-n2ncc(C)n2)c(C(=O)N2CCC[C@@H](C)[C@H]2CNc2nnc(C(F)(F)F)s2)c1 [Example A135, ((2S,3R)-3-Methyl-2-(((5-(trifluoromethyl)-1,3,4-thiadiazol-2-yl)amino)methyl)piperidin-1-yl)(5-methyl-2-(4-methyl-2H-1,2,3-triazol-2-yl)phenyl)methanone]
> 5 µM | C[C@@H]1CCCN(C(=O)c2cc(F)ccc2-n2nccn2)[C@@H]1CNc1ccc(C(F)(F)F)nn1 [Example A208, (5-Fluoro-2-(2H-1,2,3-triazol-2-yl)phenyl)((2S,3R)-3-methyl-2-(((6-(trifluoromethyl)pyridazin-3-yl)amino)methyl)piperidin-1-yl)methanone]
> 5 µM | Cc1ccc(-c2cnn(C)c2)c(C(=O)N2CCC[C@@H](C)[C@H]2CNc2ccc(F)cn2)c1 [Example A44, ((2S,3R)-2-(((5-Fluoropyridin-2-yl)-amino)methyl)-3-methylpiperidin-1-yl)(5-methyl-2-(1-methyl-1H-pyrazol-4-yl)phenyl)methanone]
1.2 µM | Cc1ccc(-n2nccn2)c(C(=O)N2CCC[C@@H](C)[C@H]2CNc2nccc(C(F)(F)F)n2)c1 [Example A163, ((2S,3R)-3-Methyl-2-(((4-(trifluoromethyl)pyrimidin-2-yl)amino)methyl)piperidin-1-yl)(5-methyl-2-(2H-1,2,3-triazol-2-yl)phenyl)methanone]

same assay, conditions: Table 2; CHO-OX2 cells, EC90 of OXA; read-out: IC50 Bioactivity OX2

IC50 | SMILES
1.6 µM | Cc1ccc(-c2ccc(C)nc2)c(C(=O)N2CCC[C@@H](C)[C@H]2CNc2ccc(C(F)(F)F)cn2)c1 (racemic) [Example 105, rac-cis-(3-Methyl-2-(((5-(trifluoromethyl)pyridin-2-yl)amino)methyl)piperidin-1-yl)(5-methyl-2-(6-methylpyridin-3-yl)phenyl)methanone]
> 10 µM | CCc1cnc(OC[C@@H]2[C@H](C)CCCN2C(=O)c2nc(C)sc2-c2ccc(F)cc2)nc1 (racemic) [Example 81, rac-cis-(2-(((5-Ethylpyrimidin-2-yl)oxy)methyl)-3-methylpiperidin-1-yl)(5-(4-fluorophenyl)-2-methylthiazol-4-yl)methanone]
0.048 µM | Cc1nc(C(=O)N2CCC[C@@H](C)[C@H]2CNC(=O)c2cccc3occc23)c(-c2ccc(F)cc2)s1 (racemic) [Example 63, rac-cis-N-((1-(5-(4-Fluorophenyl)-2-methylthiazole-4-carbonyl)-3-methylpiperidin-2-yl)methyl)benzofuran-4-carboxamide]
0.03 µM | O=C(NC[C@@H]1C[C@@H](F)CN1C(=O)c1ccccc1-c1ccccc1)c1cccc2cccnc12 [Example 128, N-(((2S,4R)-1-(Biphenylcarbonyl)-4-fluoropyrrolidin-2-yl)methyl)quinoline-8-carboxamide]
0.75 µM | Cc1nc(C(=O)N2CC(N)CCC2CNC(=O)c2cccc3cccnc23)c(-c2cccc(F)c2)s1 (racemic) [Example 53, N-((5-Amino-1-(5-(3-fluorophenyl)-2-methylthiazole-4-carbonyl)piperidin-2-yl)methyl)quinoline-8-carboxamide]
> 10 µM | Cc1ccc(NC[C@@H]2[C@H](C)CCCN2C(=O)c2nc(C)sc2-c2ccc(F)cc2)nc1 (racemic) [Example 86, rac-cis-(3-Methyl-2-(((5-methylpyridin-2-yl)amino)methyl)piperidin-1-yl)(5-(4-fluorophenyl)-2-methylthiazol-4-yl)methanone]
1.4 µM | Cc1nc(-c2ccccc2)c(C(=O)N2CCC(=O)[C@H]2CNC(=O)c2cccc3cccnc23)s1 [Example 132, (R)—N-((1-(2-Methyl-4-phenylthiazole-5-carbonyl)-3-oxopyrrolidin-2-yl)methyl)quinoline-8-carboxamide]
> 10 µM | Cc1nc(C(=O)N2CCC[C@@H](C)[C@H]2COc2ccc(C(F)(F)F)cn2)c(-c2ccc(F)cc2)s1 (racemic) [Example 79, rac-cis-(3-Methyl-2-(((5-(trifluoromethyl)pyridin-2-yl)oxy)methyl)piperidin-1-yl)(5-(4-fluorophenyl)-2-methylthiazol-4-yl)methanone]

— patent publication US9440982B2 (Eolas Therapeutics, Inc., priority 2012, dated 2016)
